Laboratory results from PubChem BioAssay AID633 (Emory University Molecular Libraries Screening Center, 2007).
Only a part is listed here, and it is no random draw. The source made the active and inactive calls.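 The calls were made as follows: active = compounds whose percent inhibition of the receptor-coactivator binding signal exceeds about 50% in the single-dose screen (limit read from the data); inactive = the rest.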

By UniProt entry, the sequences of proteins in these tests, tags left out.
UniProt Q92731, whole entry: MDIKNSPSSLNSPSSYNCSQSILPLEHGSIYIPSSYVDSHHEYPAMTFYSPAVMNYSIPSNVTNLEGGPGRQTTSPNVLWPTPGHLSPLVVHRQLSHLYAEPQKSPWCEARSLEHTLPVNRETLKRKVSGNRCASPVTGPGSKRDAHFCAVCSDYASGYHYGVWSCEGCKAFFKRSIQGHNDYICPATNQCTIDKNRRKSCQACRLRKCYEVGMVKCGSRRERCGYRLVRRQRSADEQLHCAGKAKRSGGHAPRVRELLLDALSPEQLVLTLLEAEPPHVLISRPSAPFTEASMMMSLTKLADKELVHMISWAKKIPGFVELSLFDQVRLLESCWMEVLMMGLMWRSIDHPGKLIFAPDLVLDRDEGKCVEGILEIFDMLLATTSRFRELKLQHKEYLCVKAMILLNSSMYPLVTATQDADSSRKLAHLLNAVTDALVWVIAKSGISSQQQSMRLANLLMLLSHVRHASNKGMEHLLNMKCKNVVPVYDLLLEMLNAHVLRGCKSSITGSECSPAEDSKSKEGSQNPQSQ

What follows are compounds tested against Estrogen receptor beta (Homo sapiens) (UniProt Q92731) (assay: blockers of coactivator peptide binding to ERβ – biochemical, TR-FRET, ERβ LBD, SRC-1 peptide, primary screen (AID 633;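 also: 0% = receptor plus peptide wells without compound and 100% = peptide-only wells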)). Conditions: TR-FRET ER-beta LBD / SRC1-Cy5 peptide binding; at 25.6 µM; active compounds read high.
With `Cc1nc2ccc3ccccc3c2o1.O=[N+]([O-])c1cc([N+](=O)[O-])c(O)c([N+](=O)[O-])c1` the inhibition was inactive: 3.48%. In the case of `COc1ccccc1OP(C)(=O)Nc1ccc(C)c(C)c1` (configuration not stated), the inhibition is reported as inactive: -9.12%. `CCc1ccc(OP(C)(=O)O)cc1` was tested, and the inhibition was inactive: -4.96%. `COc1ccccc1OP(C)(=O)Nc1ccc(C)cc1C` (configuration not stated) was tested, and the inhibition was inactive: -4.03%. `CP(=O)(Nc1ccccn1)Oc1ccccc1` (configuration not stated) was tested, and the inhibition was inactive: 9.9%. `Cc1c(NP(C)(=O)Oc2ccc(C(C)C)cc2)c(=O)n(-c2ccccc2)n1C` (configuration not stated) was tested, and the inhibition was inactive: 6.87%. `CN(C)CCOC(=O)C(O)(c1ccccc1)C1CCCC1` (configuration not stated) was tested, and the inhibition was inactive: 1.31%. In the case of `COc1ccc(OP(C)(=O)Nc2ccccn2)cc1` (configuration not stated), the inhibition is reported as inactive: 3.7%. In the case of `CP(=O)(Nc1ccc(Cl)cc1)Oc1ccc(F)cc1` (configuration not stated), the inhibition is reported as inactive: 20%. `CC(C)(C)c1ccc(OP(C)(=O)O)cc1` was tested, and the inhibition was inactive: -4.61%. `CP(=O)(Oc1ccccc1)N1CCOC1=O` (configuration not stated) was tested, and the inhibition was inactive: 0.37%. `COc1ccccc1OP(C)(=O)Nc1c(C)n(C)n(-c2ccccc2)c1=O` (configuration not stated) was tested, and the inhibition was inactive: -6.81%. In the case of `CP(=O)(OC12CC3CC(CC(C3)C1)C2)OC12CC3CC(CC(C3)C1)C2`, the inhibition is reported as inactive: -0.51%. `CN(C)CCOC(=O)C(O)(c1ccccc1)C1CCCCC1` (configuration not stated) was tested, and the inhibition was inactive: -7.32%. With `Cc1ccccc1NP(C)(=O)Nc1ccccc1C` the inhibition was inactive: 3.85%. For `CP(=O)(Nc1ccc2c(c1)OCCO2)Oc1ccccc1` (configuration not stated), the inhibition was inactive: 11%. With `CCOP(C)(=S)SCC(=O)NC(C)(CC)C(=O)O` (configuration not stated) the inhibition was inactive: -3.73%. `CP(=O)(Nc1ccccc1F)Oc1ccccc1` (configuration not stated) was tested, and the inhibition was inactive: -6.04%. In the case of `CP(=O)(Nc1ccccc1)Oc1ccc(F)cc1` (configuration not stated), the inhibition is reported as inactive: -5.27%. In the case of `CCN(CC)CCCOC(=O)C(O)(c1ccccc1)C1CCCCC1` (configuration not stated), the inhibition is reported as inactive: 1.74%. With `Cc1cc(C)cc(OP(C)(=O)Nc2ccccn2)c1` (configuration not stated) the inhibition was inactive: -6.88%. For `Cc1ccc(C)c(NP(C)(=O)Oc2ccccc2)c1` (configuration not stated), the inhibition was inactive: 9.66%. `Cc1cc(C)cc(OP(C)(=O)Nc2ccc(C)cc2C)c1` (configuration not stated) was tested, and the inhibition was inactive: 2.68%. `Cc1nc2ccc3ccccc3c2s1.O=[N+]([O-])c1cc([N+](=O)[O-])c(O)c([N+](=O)[O-])c1` was tested, and the inhibition was inactive: 12.1%. With `COc1ccccc1OP(C)(=O)Nc1c(C)cccc1C` (configuration not stated) the inhibition was inactive: -20.7%. In the case of `CP(=S)(Nn1cnnc1)Oc1ccccc1` (configuration not stated), the inhibition is reported as inactive: -1.87%. `CP(=O)(Nc1ccccn1)Oc1ccc(Cl)cc1` (configuration not stated) was tested, and the inhibition was active: 79.2%. `CCOP(C)(=S)SCC(=O)NC(C)C(=O)O` (configuration not stated) was tested, and the inhibition was inactive: -0.66%. With `CP(=O)(NC(=O)Nc1ccccc1)Oc1ccccc1` (configuration not stated) the inhibition was inactive: 1.62%. With `COc1ccc(OP(C)(=O)Nc2cccc(F)c2)cc1` (configuration not stated) the inhibition was inactive: -13.3%. In the case of `Cc1ccc(NP(C)(=O)Oc2ccccc2)c(C)c1` (configuration not stated), the inhibition is reported as inactive: 4.49%. With `COc1ccccc1OP(C)(=O)Nc1ccc(C)cc1` (configuration not stated) the inhibition was inactive: -3.55%.
